The list shows a part of the results, in another mix than the full data. Records with an inconclusive call do not appear. Entries that show only a call come without a potency. Some structures show a salt or complex split into parts, the way the source records it. The source made the active and inactive calls. Calls follow the shape of the dose curve; as a rule, active = well fitted inhibition curve with a large enough effect; inconclusive = small, poorly fitted or top-dose-only effect, or effect the other way; inactive = flat fitted curve, though single readings scatter.
Experiment: qHTS screen for small molecules that inhibit ELG1-dependent DNA repair in human embryonic kidney (HEK293T) cells expressing luciferase-tagged ELG1; also: nearly all actives have a fitted effect of over 55% in size
Conditions: HEK293T ELG1-luciferase reporter, luminescence, 16 h, DNA damage induced by 5-fluorouridine; series mostly up to 46.1 µM
Potency is read from the fitted curve at half-maximal effect.

| SMILES | Potency |
| --- | --- |
| O=C(NCC1(N2CCCCC2)CCCCC1)c1ccco1 | inactive |
| CCN1CCC(Nc2cccc(F)c2)CC1 | inactive |
| Cc1ccc(C(=O)NCC2(N3CCCCC3)CCCCC2)o1 | inactive |
| Fc1ccccc1NC1CCN(Cc2ccccc2)CC1 | inactive |
| COc1cc(OC)cc(C(=O)NCC2(N3CCCCC3)CCCCC2)c1 | inactive |
| CN1CCC(Nc2ccc(Cl)cc2)CC1 | inactive |
| COc1cccc(C(=O)N(c2cc(C)cc(C)c2)C2CCN(C(=O)OC(C)(C)C)CC2)c1 | active: 18.3 µM |
| COc1cc(OC)cc(C(=O)NCC2(N3CCOCC3)CCCCC2)c1 | inactive |
| CCC(CO)(C(=O)OC1CN2CCC1CC2)c1ccccc1 (stereo not given) | inactive |
| CC(C)(C)OC(=O)N1CCC(Nc2ccccc2)CC1 | inactive |
| O=C(O)C1(Nc2ccccc2)CCN(Cc2ccccc2)CC1 | inactive |
| CCCOc1ccc(C(=O)NCC2(N(C)C)CCCCC2)cc1 | inactive |
| CCOc1ncccc1C(=O)NCC1(N2CCOCC2)CCCCC1 | inactive |
| CN1CCC(Nc2ccc(F)c(Cl)c2)CC1 | inactive |
| CCc1cc(C(=O)NCC2(N3CCCCC3)CCCCC2)sc1C | inactive |
| O=C(OC1CN2CCC1CC2)C1c2ccccc2C=Cc2ccccc21 (stereo not given) | inactive |
| O=C(O)c1cccc(Nc2c([N+](=O)[O-])cc([N+](=O)[O-])cc2[N+](=O)[O-])c1 | inactive |
| CCOC(=O)N1CCC(Nc2ccc(C)cc2)CC1 | inactive |
| N/C(=N\O)c1c(N)no[n+]1[O-] | inactive |
| COc1ccc(C(=O)NCC2(N3CCOCC3)CCCCC2)cc1OC | inactive |
| COc1cc(C(=O)NCC2(N3CCOCC3)CCCCC2)cc(OC)c1C | inactive |
| O=C(NCC1(N2CCOCC2)CCCCC1)c1cc(Br)ccc1Cl | inactive |

| SMILES | Potency |
| --- | --- |
| CN(C)C1(CNC(=O)c2cccc(C#N)c2)CCCCC1 | inactive |
| c1ccc(CN2CCC(Nc3ccccc3)CC2)cc1 | inactive |
| CCCN1CCC(Nc2cc(OC)cc(OC)c2)CC1 | inactive |
| CCOC(=O)C(CC)C1=NC(C)(C)Cc2ccccc21.O=[N+]([O-])c1cc([N+](=O)[O-])c(O)c([N+](=O)[O-])c1 (stereo not given) | inactive |
| CC(C)(C)OC(=O)N1CCC(N(C(=O)c2ccccc2)c2ccc(Cl)cc2)CC1 | inactive |
| O=C(NCC1(N2CCOCC2)CCCCC1)c1cc(=O)[nH]c2ccccc12 | inactive |
| COc1cc(C(=O)NCC2(N3CCCCC3)CCCCC2)ccc1OC(F)F | inactive |
| COc1ccc(NC2CCN(C(=O)OC(C)(C)C)CC2)cc1 | inactive |
| CN1CCN(CCOC(=O)C(O)(c2ccccc2)c2ccccc2)CC1 | inactive |
| O=C(NCC1(N2CCCCC2)CCCCC1)c1cccc(C(F)(F)F)c1 | inactive |
| CCN1CCC(Nc2ccc(Cl)cc2)CC1 | inactive |
| CSc1ccc(C(=O)NCC2(N3CCOCC3)CCCCC2)cc1 | inactive |
| O=C(NCC1(N2CCCCC2)CCCCC1)c1cccc([N+](=O)[O-])c1 | inactive |
| O=C(NCC1(N2CCCCC2)CCCCC1)c1ccc(OC(F)F)cc1 | inactive |
| CCCOc1ccc(C(=O)NCC2(N(C)C)CCCCC2)cc1OC | inactive |
| O=C(OC1CN2CCC1CC2)c1ccc([N+](=O)[O-])cc1 (stereo not given) | inactive |
| COc1ccc2c(c1O)-c1c(O)c(OC)cc3c1[C@H](C2)[N+](C)(C)CC3.O=[N+]([O-])c1cc([N+](=O)[O-])c([O-])c([N+](=O)[O-])c1[O-] | inactive |
| O=C(NCC1(N2CCCCC2)CCCCC1)c1cncc(Br)c1 | inactive |
| CC(C)c1ccc(NC2CCN(C(=O)OC(C)(C)C)CC2)cc1 | inactive |
| COc1ccc(CN(CCCl)CCCl)cc1Cl | inactive |
| CN(C)c1cccc(C(=O)NCC2(N3CCCCC3)CCCCC2)c1 | inactive |
| O=[N+]([O-])c1cc([N+](=O)[O-])c(OC2CCCCC2O)c([N+](=O)[O-])c1 (stereo not given) | inactive |

| SMILES | Potency |
| --- | --- |
| N#CC1(Nc2ccccc2)CCN(Cc2ccccc2)CC1 | inactive |
| O=C(NCC1(N2CCCCC2)CCCCC1)c1ccc(Cl)s1 | inactive |
| O=C(OC1CN2CCC1CC2)C1c2ccccc2Oc2ccccc21 (stereo not given) | inactive |
| COc1ccc(Cl)cc1C(=O)NCC1(N2CCOCC2)CCCCC1 | inactive |
| CCOC(=O)N1CCC(Nc2ccc(OC)cc2)CC1 | inactive |
| O=C(NCC1(N2CCCCC2)CCCCC1)c1ccc(Cl)nc1 | inactive |
| Cc1cc(C)cc(N(C(=O)c2ccccc2)C2CCN(C(=O)OC(C)(C)C)CC2)c1 | inactive |
| O=C(NCC1(N2CCOCC2)CCCCC1)c1cc2ccccc2o1 | inactive |
| CSc1ccccc1C(=O)NCC1(N2CCCCC2)CCCCC1 | inactive |
| COc1ccc(C(=O)NCC2(N3CCCCC3)CCCCC2)cc1 | inactive |
| CC(C)(C)OC(=O)N1CCC(N(C(=O)c2ccccc2)c2ccc(F)cc2)CC1 | inactive |
| COc1ccc(C(=O)NCC2(N3CCCCC3)CCCCC2)c(OC)c1OC | inactive |
| O=C(NCC1(N2CCCCC2)CCCCC1)c1ccc(=O)[nH]c1 | inactive |
| O=C(NCC1(N2CCCCC2)CCCCC1)c1cccs1 | inactive |
| CCOC(=O)N1CCC(Nc2cccc(C)c2)CC1 | inactive |
| COc1cc(C(=O)NCC2(N(C)C)CCCCC2)ccc1OC(F)F | inactive |
| Cc1ccc(OCC(C)C)c(CN(CCCl)CCCl)c1 | inactive |
| CCCCOc1ccc(C(=O)NCC2(N3CCOCC3)CCCCC2)cc1 | inactive |
| CCOC(=O)N1CCC(Nc2ccc(F)cc2)CC1 | inactive |
| COc1ccc(NC2CCN(CCc3ccccc3)CC2)c(OC)c1 | inactive |
| CCOc1ccc(C)cc1CN(CCCl)CCCl | inactive |
